Earlier results on two compounds are cited in patent US20260174791A1, “MACROPHAGE MIGRATION INHIBITORY FACTOR (MIF) TARGETING FOR THE TREATMENT OF NON-SMALL CELL LUNG CANCER” (Board of Regents, The University of Texas System, priority 2022, published 2026).

Data set [1] deals with ALK-positive disease. The settings on record: patients with ALK-positive disease, clinical studies; cited from earlier work.
Data set [2] has as its system advanced NSCLC. As to conditions: combined chemotherapy including cetuximab vs standard chemotherapy alone; cited from earlier work.

For `C[C@@H](Oc1cc(-c2cnn(C3CCNCC3)c2)cnc1N)c1c(Cl)ccc(F)c1Cl` [Crizotinib], the response rates result in data set [1] is “around 60%”.
Consider cetuximab, for which the overall survival entry in data set [2] is “more effective at improving a person's overall survival”.
